Laboratory results published in US20070026408A1, “Materials and methods for analysis of atp-binding cassette transporter gene expression” (priority 2003, published 2007).

Key:
Type in all cases: cell-based, human
Conditions in all cases: HepG2, vinblastine sulfate 25 nM, standard 24
abcA1 = experiment: DT1 microarray drug screening, drug-treated HepG2: abcA1
Procedure: (§1) The labelled cDNA target preparation was thawed and the 150 μl added to 850 ul hybridisation buffer (500 mM sodium Phosphate pH 6.0, 1% SDS, 1% BSA, 1 mM EDTA) in a 1.5 ml microtube and heated at 95° C. for 10 min.

abcA3 = experiment: DT1 microarray drug screening, drug-treated HepG2: abcA3
Procedure: as §1

abcA5 = experiment: DT1 microarray drug screening, drug-treated HepG2: abcA5
Procedure: as §1

abcA8 = experiment: DT1 microarray drug screening, drug-treated HepG2: abcA8
Procedure: as §1

abcB2 = experiment: DT1 microarray drug screening, drug-treated HepG2: abcB2
Procedure: as §1

abcB4 = experiment: DT1 microarray drug screening, drug-treated HepG2: abcB4
Procedure: as §1

abcB11 = experiment: DT1 microarray drug screening, drug-treated HepG2: abcB11
Procedure: as §1

abcC4 = experiment: DT1 microarray drug screening, drug-treated HepG2: abcC4
Procedure: as §1

abcC5 = experiment: DT1 microarray drug screening, drug-treated HepG2: abcC5
Procedure: as §1

abcC6 = experiment: DT1 microarray drug screening, drug-treated HepG2: abcC6
Procedure: as §1

abcD3 = experiment: DT1 microarray drug screening, drug-treated HepG2: abcD3
Procedure: as §1

abcF1 = experiment: DT1 microarray drug screening, drug-treated HepG2: abcF1
Procedure: as §1

abcF3 = experiment: DT1 microarray drug screening, drug-treated HepG2: abcF3
Procedure: as §1

abcG2 = experiment: DT1 microarray drug screening, drug-treated HepG2: abcG2
Procedure: as §1

abcG4 = experiment: DT1 microarray drug screening, drug-treated HepG2: abcG4
Procedure: as §1

For `CC[C@]1(O)C[C@@H]2CN(CCc3c([nH]c4ccccc34)[C@@](C(=O)OC)(c3cc4c(cc3OC)N(C)[C@H]3[C@@](O)(C(=O)OC)[C@H](OC(C)=O)[C@]5(CC)C=CCN6CC[C@]43[C@@H]65)C2)C1` [vin, vinblastine sulfate], the “relative level of abcA1 gene expression” value (abcA1; 2 h) was 6.833, the “relative level of abcA1 gene expression” value (abcA1; 4 h) was 5.064 and the “relative level of abcA1 gene expression” value (abcA1; 8 h) was 6.364. The “relative level of abcA3 gene expression” value (abcA3; 2 h) was 10.83, the “relative level of abcA3 gene expression” value (abcA3; 4 h) was 9.241 and the “relative level of abcA3 gene expression” value (abcA3; 8 h) was 14.94. For the same compound, the “relative level of abcA5 gene expression” value (abcA5; 2 h) was 7.895, the “relative level of abcA5 gene expression” value (abcA5; 4 h) was 6.137 and the “relative level of abcA5 gene expression” value (abcA5; 8 h) was 8.642. The “relative level of abcA8 gene expression” value (abcA8; 2 h) was 8.424, the “relative level of abcA8 gene expression” value (abcA8; 4 h) was 6.724 and the “relative level of abcA8 gene expression” value (abcA8; 8 h) was 10.26. For the same compound, the “relative level of abcB2 gene expression” value (abcB2; 2 h) was 8.667, the “relative level of abcB2 gene expression” value (abcB2; 4 h) was 8.938 and the “relative level of abcB2 gene expression” value (abcB2; 8 h) was 8.491. For the same compound, the “relative level of abcB4 gene expression” value (abcB4; 2 h) was 16.19, the “relative level of abcB4 gene expression” value (abcB4; 4 h) was 13.24 and the “relative level of abcB4 gene expression” value (abcB4; 8 h) was 23.08. For the same compound, the “relative level of abcB11 gene expression” value (abcB11; 2 h) was 7.106, the “relative level of abcB11 gene expression” value (abcB11; 4 h) was 7.458 and the “relative level of abcC4 gene expression” value (abcC4; 2 h) was 5.277. For the same compound, the “relative level of abcC4 gene expression” value (abcC4; 4 h) was 5.743, the “relative level of abcC4 gene expression” value (abcC4; 8 h) was 6.273 and the “relative level of abcC5 gene expression” value (abcC5; 2 h) was 10.95. The “relative level of abcC5 gene expression” value (abcC5; 4 h) was 12.64, the “relative level of abcC5 gene expression” value (abcC5; 8 h) was 17.32 and the “relative level of abcC6 gene expression” value (abcC6; 2 h) was 8.103. For the same compound, the “relative level of abcC6 gene expression” value (abcC6; 4 h) was 8.424, the “relative level of abcC6 gene expression” value (abcC6; 8 h) was 9.917 and the “relative level of abcD3 gene expression” value (abcD3; 2 h) was 5.918. For the same compound, the “relative level of abcD3 gene expression” value (abcD3; 4 h) was 5.802, the “relative level of abcD3 gene expression” value (abcD3; 8 h) was 5.647 and the “relative level of abcF1 gene expression” value (abcF1; 2 h) was 7.852. The “relative level of abcF1 gene expression” value (abcF1; 4 h) was 7.234, the “relative level of abcF1 gene expression” value (abcF1; 8 h) was 5.759 and the “relative level of abcF3 gene expression” value (abcF3; 2 h) was 8.976. The “relative level of abcF3 gene expression” value (abcF3; 4 h) was 7.82, the “relative level of abcF3 gene expression” value (abcF3; 8 h) was 8.133 and the “relative level of abcG2 gene expression” value (abcG2; 2 h) was 6.442. For the same compound, the “relative level of abcG2 gene expression” value (abcG2; 4 h) was 5.659, the “relative level of abcG2 gene expression” value (abcG2; 8 h) was 6.037 and the “relative level of abcG4 gene expression” value (abcG4; 2 h) was 12.5. The “relative level of abcG4 gene expression” value (abcG4; 4 h) was 13.2242 and the “relative level of abcG4 gene expression” value (abcG4; 8 h) was 9.999.

Counter-ions that a name gives are not always drawn.
